The results in this text go back to patent publication US12576094B2, “Combination cannabinoid-phenylethanoid formulation for treatment of inflammation and methods related thereto” (Canole LLC, priority 2019, dated 2026).

The data set has as its system C-28/I2 chondrocytes. The data set is described as follows: toxicity screen to establish maximum tolerable concentrations in chondrocytes. The settings on record: 24 hours post-treatment, serum free. An excerpt: A clonal derivative of ATCC-certified normal chondrocytes was used for a study to determine cytokine expression. The parent line was originally derived from costal cartilage of an adolescent person. The cell line used is C-28/I2 accession number CVCL_0187. The cells were immortalized via retroviral vector-mediated SV40 Large T antigen expression. Cells were confirmed negative for mycoplasma contamination and genotyped by STR analysis to verify cell identity. This cell line is widely used as a model for studying normal and pathological cartilage repair mechanisms and inflammation.
The cells were cultured at 37° C. with 5% CO2, DMEM/F12 media supplemented with 10% heat-inactivated fetal bovine serum. Antimicrobials were not added to the media. Cells were maintained between 40 and 80% confluency to avoid terminal differentiation. Cells used for the experiments had been passaged no more than ten times prior to each experiment.
A series of pilot studies were performed to design the final full-scale experiment. First, a toxicity screen for each test compound was performed to establish maximum tolerable concentrations in this model system. Second, assays were run to establish the optimal means of inducing a pro-inflammatory state in the cell culture system. […]

With nicotinamide ribose, the maximum tolerable concentration is given as 1 mM.
